We go through seven molecules from patent US20240261333A1 (published 2024).

Assay [1] concerns the target T1, P01837.1 (UniProt P01837 1-107).
T1 construct: No name printed; also called NA
Put plainly: co-IP with anti-FLAG, N-FLAG B3GNT2, mass spectrometry.

Assay [2] deals with T2, PSMA1 (UniProt P25786 1-263).
T2 construct: also called NP_002777.1 (+1)
The assay is described as follows: co-IP, anti-FLAG, lysate of C-FLAG B3GNT2 cells, mass spectrometry.

The target of assay [3] is T3, ALDOA (UniProt P04075-2 1-418, limits assumed).
T3 construct: also called NP_001230106.1 (+1)
T3 sequence (looked up): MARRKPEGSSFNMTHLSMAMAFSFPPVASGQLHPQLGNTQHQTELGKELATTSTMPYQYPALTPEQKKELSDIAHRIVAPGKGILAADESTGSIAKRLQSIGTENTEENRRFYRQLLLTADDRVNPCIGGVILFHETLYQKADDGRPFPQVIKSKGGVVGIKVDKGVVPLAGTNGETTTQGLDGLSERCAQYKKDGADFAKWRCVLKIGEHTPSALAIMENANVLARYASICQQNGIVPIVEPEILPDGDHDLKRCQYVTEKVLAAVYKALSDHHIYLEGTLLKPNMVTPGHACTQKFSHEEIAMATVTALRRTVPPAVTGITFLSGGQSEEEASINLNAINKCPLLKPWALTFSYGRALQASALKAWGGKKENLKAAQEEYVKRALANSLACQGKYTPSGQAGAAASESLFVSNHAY
Described as above.

The target in assay [4] is T4, SEC16A (UniProt O15027-4 1-2332, limits assumed).
T4 construct: also called NP_001263347.1 (+15)
Described as above.

The target of assay [5] is T5, PSMA4 (UniProt P25789 1-261).
T5 construct: also called NP_002780.1
T5 sequence (looked up): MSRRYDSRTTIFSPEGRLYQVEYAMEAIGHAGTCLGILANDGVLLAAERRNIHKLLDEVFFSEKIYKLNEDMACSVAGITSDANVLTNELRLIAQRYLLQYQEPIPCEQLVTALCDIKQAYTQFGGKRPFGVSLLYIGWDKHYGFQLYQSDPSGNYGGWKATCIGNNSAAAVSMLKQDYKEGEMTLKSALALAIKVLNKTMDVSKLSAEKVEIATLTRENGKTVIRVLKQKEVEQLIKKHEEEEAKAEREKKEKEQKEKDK
Described as above.

Assay [6] concerns the target T6, HLA-A (UniProt P04439 25-365, limits assumed).
T6 construct: also called XP_024308303.1
The assay is described as above.

For assay [7], the target named is T7, PRR4 (UniProt Q16378 17-134).
T7 construct: also called NP_009175.2
T7 sequence (looked up): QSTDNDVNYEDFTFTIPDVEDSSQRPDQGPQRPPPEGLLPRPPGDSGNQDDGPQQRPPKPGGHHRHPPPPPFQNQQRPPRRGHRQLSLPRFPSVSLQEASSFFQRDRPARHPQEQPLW
The assay is described as above.

For assay [8], the target named is T8, SRSF7 (UniProt Q16629 1-238).
T8 construct: also called NP_001026854.1 (+1)
T8 sequence (looked up): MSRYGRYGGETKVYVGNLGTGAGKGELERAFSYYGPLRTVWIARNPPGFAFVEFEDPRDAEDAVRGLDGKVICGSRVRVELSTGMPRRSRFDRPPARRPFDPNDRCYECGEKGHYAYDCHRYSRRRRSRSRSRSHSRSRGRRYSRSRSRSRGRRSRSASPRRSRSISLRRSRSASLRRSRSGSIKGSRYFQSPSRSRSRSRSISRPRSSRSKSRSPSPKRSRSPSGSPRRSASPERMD
The assay is described as above.

Assay [9] concerns the target T9, ACTG1 (human, UniProt P63261 2-375). The assay is described as follows: co-IP, anti-FLAG, lysate of cells with N-FLAG B3GNT2; mass spectrometry.
The target in assay [10] is T10, ACTA2 (human, UniProt P62736 3-377). Put plainly: co-IP with mouse anti-FLAG from lysate of cells overexpressing N-FLAG B3GNT2, then mass spectrometry.
For assay [11], the target named is T10, ACTA2. The assay is described as follows: co-IP with mouse anti-FLAG from lysate of cells overexpressing C-FLAG B3GNT2, then mass spectrometry.
The target in assay [12] is T9, ACTG1. The assay is described as follows: co-IP, anti-FLAG, lysate of cells with C-FLAG B3GNT2; mass spectrometry.
For assay [13], the target named is T1, P01837.1. Put plainly: co-IP with anti-FLAG, C-FLAG B3GNT2, mass spectrometry.

B1: N-terminal FLAG tagged B3GNT2 (enzyme, human, UniProt Q9NY97 1-397, looked up)
chain: MSVGRRRIKLLGILMMANVFIYFIMEVSKSSSQEKNGKGEVIIPKEKFWKISTPPEAYWNREQEKLNRQYNPILSMLTNQTGEAGRLSNISHLNYCEPDLRVTSVVTGFNNLPDRFKDFLLYLRCRNYSLLIDQPDKCAKKPFLLLAIKSLTPHFARRQAIRESWGQESNAGNQTVVRVFLLGQTPPEDNHPDLSDMLKFESEKHQDILMWNYRDTFFNLSLKEVLFLRWVSTSCPDTEFVFKGDDDVFVNTHHILNYLNSLSKTKAKDLFIGDVIHNAGPHRDKKLKYYIPEVVYSGLYPPYAGGGGFLYSGHLALRLYHITDQVHLYPIDDVYTGMCLQKLGLVPEKHKGFRTFDIEEKNKNNICSYVDLMLVHSRKPQEMIDIWSQLQSAHLKC
notes: FLAG-tagged ORF overexpressed in A375 cells; pulled down from the lysate with mouse anti-FLAG; also called N-FLAG B3GNT2; N-term FLAG; not shown: N-terminal FLAG tag
Turning to B1, in assay [1], the “co-IP/MS count, N-term FLAG” value came out at 89.

B2: C-terminal FLAG tagged B3GNT2 (enzyme, human, UniProt Q9NY97 1-397, looked up)
chain: B1 chain
notes: Bait of the co-IP; overexpressed from a synthesized ORF and pulled down from cell lysate with mouse anti-FLAG; also called C-FLAG B3GNT2; C-term flag; not shown: FLAG tag at the C-terminus
As to B2, the co-IP/MS count is 0 in [2]; 0 in [3]; 0 in assay [4]; 0 in assay [5]; 4 in assay [6]; 0 in assay [7]. In [8], this molecule had a co-IP/MS count of 0.

B3: N-terminal FLAG tagged B3GNT2 (enzyme, human, UniProt Q9NY97 1-397, looked up)
chain: B1 chain
notes: Overexpressed in cells and pulled down from the lysate with mouse anti-FLAG antibody; also called N-FLAG B3GNT2; N-term FLAG; not shown: N-terminal FLAG tag
For the molecule B3, the “co-IP mass spectrometry count” value in assay [9] was 82.

B4: N-terminal FLAG tagged B3GNT2 (enzyme, human, UniProt Q9NY97 1-397, looked up)
chain: B1 chain
notes: FLAG-tagged ORF overexpressed in A375 cells; bait of the co-IP with mouse anti-FLAG; also called N-FLAG B3GNT2; N-term FLAG; not shown: N-terminal FLAG tag
For the molecule B4, the “co-IP mass spectrometry count (N-term FLAG)” value in assay [10] is 64.

B5: C-terminal FLAG tagged B3GNT2 (enzyme, human, UniProt Q9NY97 1-397, looked up)
chain: B1 chain
notes: FLAG-tagged ORF overexpressed in A375 cells; bait of the co-IP with mouse anti-FLAG; also called C-FLAG B3GNT2; C-term flag; not shown: C-terminal FLAG tag
Take B5: in assay [11], the “co-IP mass spectrometry count (C-term flag)” value was found to be 81.

B6: C-terminal FLAG tagged B3GNT2 (enzyme, human, UniProt Q9NY97 1-397, looked up)
chain: B1 chain
notes: Overexpressed in cells and pulled down from the lysate with mouse anti-FLAG antibody; also called C-FLAG B3GNT2; C-term flag; not shown: C-terminal FLAG tag
For B6, in assay [12], the “co-IP mass spectrometry count” value was found to be 107.

B7: C-terminal FLAG tagged B3GNT2 (enzyme, human, UniProt Q9NY97 1-397, looked up)
chain: B1 chain
notes: FLAG-tagged ORF overexpressed in A375 cells; pulled down from the lysate with mouse anti-FLAG; also called C-FLAG B3GNT2; C-term flag; not shown: C-terminal FLAG tag
For B7, in assay [13], the “co-IP/MS count, C-term flag” value was 146.
